Reference: ChEMBL document CHEMBL1133817, “Discovery of novel, orally active dual NK1/NK2 antagonists” (Bioorg Med Chem Lett, 2001)

Key:
[1] = tested on: Substance-P receptor (Oryctolagus cuniculus); test: Binding constant towards tachykinin receptor 1 using ASMSP as agonist on rabbit pulmonary artery tissues.
[2] = tested on: Canis lupus familiaris; test: Plasma clearance in dog at a dose of 1 uM/kg was determined; conditions: read-out: Clp

Row | Compound | pKB [1] | clearance [2] [mL/min/kg]
1 | CC(=O)NC1(c2ccccc2)CCN(CC[C@H](CN(C)C(=O)c2ccccc2)c2ccc(Cl)c(Cl)c2)CC1 | 5.4 | –
2 | CN(C[C@@H](CCN1CCC(c2ccccc2[S@+](C)[O-])CC1)c1ccc(Cl)c(Cl)c1)C(=O)c1cc(C#N)cc2ccccc12 (stereo in doubt) [listing 1 of 2 here] | 8.98 | –
3 | CN(C[C@@H](CCN1CCC(c2ccccc2[S@+](C)[O-])CC1)c1ccc(Cl)c(Cl)c1)C(=O)c1cc(C#N)cc2ccccc12 (stereo in doubt; 4b) | 8.36 | –
4 | COc1cc(C(=O)N2CC[C@](CCN3CCC(C(N)=O)(c4ccccc4)CC3)(c3ccc(Cl)c(Cl)c3)C2)cc(OC)c1OC | 7.4 | –
5 | CN(C[C@@H](CCN1CCC(c2ccccc2[S@+](C)[O-])CC1)c1ccc(Cl)c(Cl)c1)C(=O)c1cc(C#N)cc2ccccc12 (stereo in doubt) [listing 2 of 2 here] | – | 9.5
